{"source": "patent US20240226175A1", "about": "“THERAPEUTIC AGENT USING GENOME-EDITED PLURIPOTENT STEM CELL” (KEIO UNIVERSITY, priority 2020, published 2024)", "system": "glioma cell lines U87, U251, SF126, hG008, hG021, GL261, TSG", "conditions": "CCK-8 assay", "data": [{"smiles": "O=c1[nH]cc(F)c(=O)[nH]1", "note": "[5-FU, 5-fluorouracil]", "values": [{"measurement": "order of susceptibility of glioma cell lines to 5-FU", "result": "(favorable) GL261, TSG, hG008, U87 and U251 (unfavorable)"}]}]}
